Key:
[1] = test system: Zebrafish larvae; settings: formulation pH 6.8 and higher, stored 5 days; 50 µM cyanide
[2] = test system: Sprague Dawley rats; test: Sprague Dawley toxicity model; settings: single IP injection, approximately 5 times the efficacious dose (1338 µmol/m^2), after 5 days

Substance | efficacy in cyanide challenged zebrafish survival assay [1] | BUN, creatinine, and phosphate levels [2]
bis-(L-methionine amide (S,N)platinum(II) dichloride | decreased efficacy | 
bis-(L-S-methylcysteine)-(S,N)platinum(II) dichloride |  | significant increases

— paper PMC10823771, “Investigating the replacement of carboxylates with carboxamides to modulate the safety and efficacy of platinum(II) thioether cyanide scavengers” (2023)
